Common to all, as to format: nucleic-acid assay
The test system of assay [1] is Nucleic Acid. The experiment in a line: Thermal stabilization of Salmon testes duplex DNA assessed as change in transition temperature at 15 uM after 4 hrs by temperature-dependent spectrophotometry in presence of 150 mM K+ ions. The conditions noted are these: Salmonidae. The procedure, abridged:
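Salmon testes duplex DNA at 30 μM base pair with ligand at 15 μM. Buffer 10 mM potassium phosphate pH 7.5 with 132 mM KCl (150 mM K+). DNA preheated at 90 °C for 5 min and cooled slowly over 4 hr. Temperature-dependent absorbance recorded in 1 cm quartz cells.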

Assay [2] deals with Nucleic Acid. Nature of the assay: Thermal stabilization of […] poly(rA).poly(rU) duplex RNA assessed as change in transition temperature at 15 uM after 4 hrs by temperature-dependent spectrophotometry in presence of 150 mM K+ ions.
The subject of assay [3] is Nucleic Acid. The experiment in a line: Thermal stabilization of r[AG4CG2CUG2UCG2AGUG2C] sequence of quadruplex RNA assessed as change in transition temperature at 20 uM after 4 hrs by temperature-dependent spectrophotometry in presence of 150 mM K+ ions. The method in brief:
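UV melting in 1 cm quartz cells. Sample held 5 μM strand of hTel DNA 24mer or AurA RNA 22mer, with ligand at 20 μM. Buffer 10 mM potassium phosphate pH 7.5 plus 132 mM KCl (150 mM K+ total). Nucleic acids preheated at 90 °C for 5 min and slowly cooled over 4 hr before use. AurA transition followed at 295 nm.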

Consider `CC(C)[C@@H]1NC(=O)c2coc(n2)-c2coc(n2)-c2coc(n2)[C@H](C(C)C)NC(=O)c2coc(n2)-c2coc(n2)-c2coc1n2` [HEXAOXAZOLE DIVALINE], for which the deltaT in assay [1] was 0 °C; in assay [2], 0 °C; in assay [3], 19.5 °C.

For the origin of these results see ChEMBL document CHEMBL1157908, “Macrocyclic pyridyl polyoxazoles: selective RNA and DNA G-quadruplex ligands as antitumor agents” (J Med Chem, 2010).
